The test system of the data set is B6×129-IL-10−/− mice. To be noted: 50 ng/d for females; 100 ng/d for males from age 7 weeks; loss after age 14 weeks.

Each structure is given as a SMILES string.

Turning to `C=C1/C(=C\C=C2/CCC[C@]3(C)[C@@H]([C@H](C)CCCC(C)(C)O)CC[C@@H]23)C[C@@H](O)C[C@@H]1O` [Calcitriol, 1,25 dihydroxyvitamin D3], the Weight lost entry was “about 15%”.

The values are drawn from patent US6989377B2, “Treating vitamin D responsive diseases” (priority 1999, dated 2006).
